The target of the assay is mouse CXCR4 (mouse) (UniProt P70658). In words: FMAT, hybridoma supernatant on HEK293T cells transiently overexpressing full-length mouse CXCR4.

Protein sequences, listed by entry. Tags and fused reporters are not part of them.
UniProt P70658, whole entry: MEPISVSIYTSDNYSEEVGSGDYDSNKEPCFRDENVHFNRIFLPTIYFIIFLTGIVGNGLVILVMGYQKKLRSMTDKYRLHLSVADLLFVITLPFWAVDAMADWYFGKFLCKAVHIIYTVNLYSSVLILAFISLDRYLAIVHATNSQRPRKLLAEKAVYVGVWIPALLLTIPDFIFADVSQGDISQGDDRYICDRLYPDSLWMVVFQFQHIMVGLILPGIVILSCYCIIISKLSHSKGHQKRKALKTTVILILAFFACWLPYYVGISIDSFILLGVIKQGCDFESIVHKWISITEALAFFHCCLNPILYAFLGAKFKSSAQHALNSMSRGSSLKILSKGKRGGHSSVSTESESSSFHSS

For one molecule, Count, FL1 and FL1 x count results are on record in patent publication US20140314784A1.

B1: 5E1 (antibody, V domains shown)
VH: EVQLLESGGGLVQPGGSLRLSCAASGFTFSSFAMNWVRQAPGKGLEWVSAISGSGGNIYYADSVRGRFTISRDNSKNTLYLQMNSLRAEDTAVYYCAKVDRNLGYYHGMDVWGQGTTVTVSS
VL: DIVMTQSPLSLPVTPGEPASISCRSSQSLLHSNGYNYLDWYLQKPGQSPQLLIYLGSNRASGVPDRFSGSGSGSDFTLKISRVEAEDVGVYYCMQALQFTFGPGTKVDIK
The molecule B1 gave a Count of 86, an FL1 of 1390 and an FL1 x count of 119000.
